From ChEMBL document CHEMBL1145387, “Carbonic anhydrase activators: activation of the human isoforms VII (cytosolic) and XIV (transmembrane) with amino acids and amines” (Bioorg Med Chem Lett, 2007)
Each block holds one molecule with its values, some of them ahead of it.

What was measured:
[1] = biological target: Carbonic anhydrase 14 (Homo sapiens) (UniProt Q9ULX7); assay: Activation of human recombinant CA14 by CO2 hydrase assay
[2] = tested on: N[C@@H](Cc1ccccc1)C(=O)O; conditions: Homo sapiens; 10 uM
[3] = biological target: Carbonic anhydrase 7 (Homo sapiens) (UniProt P43166); assay: Activation of human recombinant CA7 by CO2 hydrase assay
[4] = tested on: N[C@H](Cc1ccccc1)C(=O)O; conditions: Homo sapiens; 10 uM
[5] = tested on: N[C@@H](Cc1ccccc1)C(=O)O; conditions: Homo sapiens; 10 uM; remark: listed apart in the source

- KA [1]: 7.21 µM
Molecule: N[C@H](Cc1ccccc1)C(=O)O

Molecule: Carbonic anhydrase 1 (Homo sapiens), P00915
- kcat [2]: 19.8 10^5/s

- KA [3]: 10.9 µM
- KA [1]: 0.24 µM
Molecule: N[C@@H](Cc1ccccc1)C(=O)O

Molecule: Carbonic anhydrase 2 (Homo sapiens) (from UniProt P00918)
- kcat [4]: 5.2 10^6/s
- kcat [5]: 5.7 10^6/s
